This is an account of results in PubChem BioAssay AID1454 (National Center for Advancing Translational Sciences (NCATS), 2008).

The entries are a selection whose mix differs from that of the whole data set. Inconclusive results are not listed. Calls of active or inactive are those of the source. Calls come from the whole dose curve; as a rule, active = well fitted inhibition curve with a large enough effect; inconclusive = small, poorly fitted or top-dose-only effect, or effect the other way; inactive = flat fitted curve, though single readings scatter.

This assay in a line: qHTS Assay for Inhibitors of the ERK Signaling Pathway using a Homogeneous Screening Assay; Stimulation with EGF.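 Note: plate controls were stimulated vehicle wells for no effect and unstimulated vehicle basal for full effect; nearly all actives have a fitted effect of over 55% in size.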 To be noted: HEK293-V1b, EGF-stimulated phospho-ERK AlphaScreen; at 11.5 µM (top of the series) unless noted.
With `CP(=O)(OCCOc1ccccc1)OCCOc1ccccc1`, the activity change, negative = inhibition is inactive: -0.388%.

Take `CP(=O)(Nc1ccc(Cl)cc1Cl)Oc1ccccc1` (stereo not given): the activity change, negative = inhibition was inactive: -1.23%.

Take `Cc1cc(C)cc(OP(C)(=O)Nc2cccc(C(F)(F)F)c2)c1` (stereo not given): the activity change, negative = inhibition was inactive: -3.28%.

On to `COc1ccc(OP(C)(=O)Nc2ccccc2Br)cc1` (stereo not given), for which the activity change, negative = inhibition was inactive: 5.17%.

With `O=[N+]([O-])c1cc([N+](=O)[O-])c(Nc2ccccn2)c([N+](=O)[O-])c1`, the activity change, negative = inhibition was inactive: 4.96%.

In the case of `COc1ccccc1OP(C)(=O)Nc1ccccc1Br` (stereo not given), the activity change, negative = inhibition is inactive: -3.66% [at 57.5 µM].

On to `CN(C)C(=O)c1c([N+](=O)[O-])cc([N+](=O)[O-])cc1[N+](=O)[O-]`, for which the activity change, negative = inhibition is inactive: -2.24%.

Consider `COc1ccc(OP(C)(=O)Nc2ccc(Br)cc2)cc1` (stereo not given), for which the activity change, negative = inhibition was inactive: -2.9%.

On to `N#[O+].[C-]#N.[C-]#N.[C-]#N.[C-]#N.[C-]#N.[Fe+2].[Na+].[Na+]`, for which the activity change, negative = inhibition is inactive: 11.5%.

Consider `O=C(OCCCN1CCCC1)C(O)(c1ccccc1)C1CCCCC1` (stereo not given), for which the activity change, negative = inhibition was inactive: 16.2% [at 57.5 µM].

On to `OCCSCCO`, for which the activity change, negative = inhibition is inactive: 5.33%.

For `CCc1ccc(OP(C)(=O)Nc2cccnc2)cc1` (stereo not given), the activity change, negative = inhibition was inactive: -6.79%.

Turning to `C/C1=C2N=C(/C=C3N=C(/C(C)=C4\[N-][C@@](C)([C@H]5N=C1[C@@](C)(CCC(=O)NC[C@H](C)OP(=O)([O-])O[C@@H]1[C@H](O)[C@H](n6cnc7cc(C)c(C)cc76)O[C@@H]1CO)[C@@H]5CC(N)=O)[C@](C)(CC(N)=O)[C@H]4CCC(N)=O)[C@@](C)(CC(N)=O)[C@@H]\3CCC(N)=O)C(C)(C)[C@@H]/2CCC(N)=O.[C-]#N.[Co+3]`, the activity change, negative = inhibition is inactive: 15.4% [at 25.7 µM].

On to `CCOC(=O)c1ccc(NP(C)(=O)Oc2ccc(Cl)cc2)cc1` (stereo not given), for which the activity change, negative = inhibition is inactive: -3.73%.

Turning to `O=[N+]([O-])c1ccc(OP2(=O)COCCO2)cc1` (stereo not given), the activity change, negative = inhibition is inactive: 8.03% [at 57.5 µM].

`Cc1cc(-c2cccc3ccccc23)c(C)cn1.O=[N+]([O-])c1cc([N+](=O)[O-])c(O)c([N+](=O)[O-])c1`: the activity change, negative = inhibition was inactive: 2.94% [at 57.5 µM].

Consider `COc1ccc(NP(C)(=O)Oc2ccccc2OC)cc1` (stereo not given), for which the activity change, negative = inhibition is inactive: -7.6% [at 57.5 µM].

Regarding `CP(=O)(Nc1ccc2c(c1)OCCO2)Oc1ccccc1` (stereo not given), the activity change, negative = inhibition is inactive: -4.88%.

For `CCN(CCCl)Cc1ccccc1C`, the activity change, negative = inhibition was inactive: 24.2%.

As to `CP(=O)(Nc1ccc(SC(F)(F)F)cc1)Oc1ccc(F)cc1` (stereo not given), the activity change, negative = inhibition is inactive: -1.23% [at 57.5 µM].

For the molecule `O=C(OCCN1CCN(CCOCc2ccccc2)CC1)C(O)(c1ccccc1)c1ccccc1`, the activity change, negative = inhibition was inactive: -7.61%.

For the molecule `CC(C)c1ccc(OP(C)(=O)Nc2ccc(SC(F)(F)F)cc2)cc1` (stereo not given), the activity change, negative = inhibition is inactive: -8.13%.

As to `CCN(CC)CCCOC(=O)C(O)(c1ccccc1)C1CCCCC1` (stereo not given), the activity change, negative = inhibition was inactive: 5.61%.

As to `COc1ccc(OP(C)(=O)Nc2ccc(SC(F)(F)F)cc2)cc1` (stereo not given), the activity change, negative = inhibition is inactive: 0.0173%.

As to `CC1=NCCc2c1[nH]c1ccccc21.O=[N+]([O-])c1cc([N+](=O)[O-])c(O)c([N+](=O)[O-])c1`, the activity change, negative = inhibition is inactive: -0.0719%.

`CP(=O)(Nc1cccc(Br)c1)Oc1ccccc1` (stereo not given): the activity change, negative = inhibition was inactive: 0.771%.

For the molecule `CCOC(=O)c1ccc(NP(C)(=O)Oc2cc(C)cc(C)c2)cc1` (stereo not given), the activity change, negative = inhibition was inactive: 6.52%.

For `O=[N+]([O-])c1cc([N+](=O)[O-])c(-n2nnc3ccccc32)c([N+](=O)[O-])c1`, the activity change, negative = inhibition is inactive: -3.25%.

In the case of `CN1CCCCC1COC(=O)C1(O)c2ccccc2CCc2ccccc21` (stereo not given), the activity change, negative = inhibition was inactive: 13.2%.

As to `CP(=O)(Nc1ccc(SC(F)(F)F)cc1)Oc1ccccc1` (stereo not given), the activity change, negative = inhibition was inactive: 0.732%.

With `CCCOc1ccc(NP(C)(=O)Oc2ccc(Cl)cc2)cc1` (stereo not given), the activity change, negative = inhibition is inactive: 6.57%.

Turning to `O=[N+]([O-])c1cc([N+](=O)[O-])c(Nc2nnnn2CCO)c([N+](=O)[O-])c1`, the activity change, negative = inhibition is inactive: -6.22% [at 57.5 µM].

Take `CP(=O)(Nc1ccccc1Br)Oc1ccccc1` (stereo not given): the activity change, negative = inhibition was inactive: -5%.

In the case of `COc1ccccc1OP(C)(=O)Nc1ccccc1` (stereo not given), the activity change, negative = inhibition was inactive: -0.386%.

As to `CCOC(=O)c1ccc(NP(C)(=O)Oc2ccc(OC)cc2)cc1` (stereo not given), the activity change, negative = inhibition is inactive: 1.43%.

For `CP(=O)(Oc1ccccc1)OC(c1ccccc1)C(F)(F)F` (stereo not given), the activity change, negative = inhibition is inactive: -5.31%.

Turning to `CP(=O)(Nc1ccc(SC(F)(F)F)cc1)Oc1ccc(Cl)cc1` (stereo not given), the activity change, negative = inhibition was inactive: 7.54% [at 57.5 µM].

For `Cc1cccc(C)c1OP(C)(=O)Nc1ccc(SC(F)(F)F)cc1` (stereo not given), the activity change, negative = inhibition is inactive: 7.4%.

With `Cc1cc(C)cc(OP(C)(=O)Nc2ccc(SC(F)(F)F)cc2)c1` (stereo not given), the activity change, negative = inhibition is inactive: 11%.

On to `CCOC(=O)c1ccc(NP(C)(=O)Oc2ccccc2)cc1` (stereo not given), for which the activity change, negative = inhibition is inactive: 1.4%.

Turning to `Cc1cc(C)cc(OP(C)(N)=O)c1` (stereo not given), the activity change, negative = inhibition was inactive: -0.785%.

As to `COc1ccccc1OP(C)(=O)Nc1cc(Cl)ccc1C` (stereo not given), the activity change, negative = inhibition was inactive: 6.52%.

Consider `O=[N+]([O-])c1ccc2c(c1)C=Nc1ccccc1O2`, for which the activity change, negative = inhibition is inactive: -6.08%.

For the molecule `Cc1cccc(C)c1OP(C)(N)=O` (stereo not given), the activity change, negative = inhibition was inactive: 29.9%.

`CC(C)(C)c1ccc(OP(C)(=O)Nc2ccc(SC(F)(F)F)cc2)cc1` (stereo not given): the activity change, negative = inhibition was inactive: 1.04%.
